Laboratory results from ChEMBL document CHEMBL5352458, “Novel slow-binding reversible acetylcholinesterase inhibitors based on uracil moieties for possible treatment of myasthenia gravis and protection from organophosphate poisoning” (2023).

Sequences of proteins named here, by UniProt entry; tags and fusion partners are left off. Residues count along the entry.
UniProt P22303, 32-614 limits assumed: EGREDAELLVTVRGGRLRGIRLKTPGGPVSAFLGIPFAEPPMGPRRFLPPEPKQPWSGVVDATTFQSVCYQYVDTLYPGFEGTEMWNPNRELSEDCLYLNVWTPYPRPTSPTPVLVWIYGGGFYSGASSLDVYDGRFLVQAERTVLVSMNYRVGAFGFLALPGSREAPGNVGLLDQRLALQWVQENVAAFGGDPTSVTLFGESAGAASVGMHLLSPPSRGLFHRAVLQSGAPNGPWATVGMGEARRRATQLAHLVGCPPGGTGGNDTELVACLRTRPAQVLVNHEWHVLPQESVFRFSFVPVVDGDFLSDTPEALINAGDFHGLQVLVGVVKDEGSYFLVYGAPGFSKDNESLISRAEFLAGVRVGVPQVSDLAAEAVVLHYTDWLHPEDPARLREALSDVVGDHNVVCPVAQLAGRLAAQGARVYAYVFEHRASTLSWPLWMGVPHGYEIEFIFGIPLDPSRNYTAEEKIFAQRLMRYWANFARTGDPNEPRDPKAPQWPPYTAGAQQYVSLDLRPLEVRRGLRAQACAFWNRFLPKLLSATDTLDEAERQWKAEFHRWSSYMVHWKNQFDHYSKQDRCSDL
UniProt P06276, 29-602 limits assumed: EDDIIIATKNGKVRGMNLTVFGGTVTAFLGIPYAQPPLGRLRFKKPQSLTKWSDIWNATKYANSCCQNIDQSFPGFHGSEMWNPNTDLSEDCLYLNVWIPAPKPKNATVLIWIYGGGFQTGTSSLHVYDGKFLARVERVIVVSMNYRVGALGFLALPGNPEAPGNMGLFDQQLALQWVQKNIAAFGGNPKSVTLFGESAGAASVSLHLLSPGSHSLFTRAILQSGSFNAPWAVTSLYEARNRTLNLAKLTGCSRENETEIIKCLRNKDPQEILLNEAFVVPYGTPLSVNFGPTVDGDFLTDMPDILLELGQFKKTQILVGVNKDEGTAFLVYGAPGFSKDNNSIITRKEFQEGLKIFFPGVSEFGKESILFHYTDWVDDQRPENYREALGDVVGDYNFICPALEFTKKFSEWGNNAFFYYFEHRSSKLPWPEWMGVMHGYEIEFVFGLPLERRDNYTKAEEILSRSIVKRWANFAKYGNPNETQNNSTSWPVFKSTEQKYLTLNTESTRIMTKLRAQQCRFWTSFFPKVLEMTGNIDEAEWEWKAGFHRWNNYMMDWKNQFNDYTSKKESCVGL

Key:
[1] = Acute toxicity in ip dosed mouse; conditions: in vivo
Acetylcholinesterase [2] = biological target: T1, Acetylcholinesterase (Homo sapiens, UniProt P22303); experiment: Inhibition of AChE in human Erythrocyte
Cholinesterase [3] = biological target: T2, Cholinesterase (Homo sapiens, UniProt P06276); experiment: Inhibition of human plasma BChE
Cholinesterase [4] = biological target: T2, Cholinesterase; experiment: Inhibition of human BChE using butyrylthiocholine as substrate preincubated for 5 mins followed by substrate addition and measured after 2 mins by Perkin elmer based spectrophotometer analysis
Acetylcholinesterase [5] = biological target: T1, Acetylcholinesterase; experiment: Inhibition of human AChE using acetylthiocholine as substrate preincubated for 5 mins followed by substrate addition and measured after 2 mins by Perkin elmer based spectrophotometer analysis
Rattus norvegicus [6] = experiment: Anti-experimental autoimmune myasthenia gravis activity in Wistar rat assessed as increase in amplitude decrement of action potential at 0.005 to 0.01 mg/kg, ip measured at 15 to 240 mins by electromyogram analysis; conditions: dose 0.005-0.01 mg/kg, time 15-240 min
Acetylcholinesterase [7] = biological target: T1, Acetylcholinesterase; experiment: Mixed competitive inhibition of human AChE assessed as inhibition of constant by Dixon plot analysis
Acetylcholinesterase [8] = biological target: T1, Acetylcholinesterase; experiment: Mixed uncompetitive inhibition of human AChE assessed as inhibition of constant by cornish-bowden plot analysis
Cholinesterase [9] = biological target: T2, Cholinesterase; experiment: Mixed competitive inhibition of human BChE assessed as inhibition of constant by Dixon plot analysis
Rattus norvegicus [10] = experiment: Anti-experimental autoimmune myasthenia gravis activity in Wistar rat assessed as increase in force of urinary bladder contraction at 0.1 mg/kg, ip measured for 15 mins by electromyogram analysis; conditions: 0.25 h

Row | SMILES | LD50 [1] [mg/kg] | IC50 (Cholinesterase [4]) [µM] | IC50 (Acetylcholinesterase [5]) [nM] | other results
1 | CC[N+](CC)(CCCCCn1c(=O)cc(C)n(CCCCCn2c(C)cc(=O)n(C)c2=O)c1=O)Cc1ccccc1C(F)(F)F.[Br-] | 4.5 | – | – | –
2 | CC[N+](CC)(CCCCCn1c(=O)cc(C)n(CCCCn2c(C)cc(=O)n(C)c2=O)c1=O)Cc1ccccc1C(F)(F)F.[Br-] | 1.9 | – | – | –
3 | CC[N+](CC)(CCCCCn1c(C)cc(=O)n(CCCCC[N+](CC)(CC)Cc2ccccc2)c1=O)Cc1ccccc1 | – | – | – | IC50 (Acetylcholinesterase [2]): 0.14 nM; IC50 (Cholinesterase [3]): 10 µM
4 | CC[N+](CC)(CCCCCn1c(=O)cc(C)n(CCCn2c(C)cc(=O)n(C)c2=O)c1=O)Cc1ccccc1C(F)(F)F.[Br-] | 15.1 | – | – | –
5 | CC[N+](CC)(CCCCCn1c(C)cc(=O)n(CCCCC[N+](CC)(CC)Cc2ccccc2)c1=O)Cc1ccccc1.[Br-].[Br-] | 1 | – | – | –
6 | CC[N+](CC)(CCCCCn1c(=O)cc(C)n(CCCn2c(C)cc(=O)n(C)c2=O)c1=O)Cc1ccccc1[N+](=O)[O-] | – | 4 | 7 | –
7 | Br.CC[N+](CC)(CCCCCn1c(=O)cc(C)n(CCCn2c(C)cc(=O)n(C)c2=O)c1=O)Cc1ccccc1[N+](=O)[O-] | 1.1 | – | – | –
8 | CC[N+](CC)(CCCCCn1c(=O)cc(C)n(CCCCn2c(C)cc(=O)n(C)c2=O)c1=O)Cc1ccccc1[N+](=O)[O-] | – | 25 | 0.6 | –
9 | Br.CC[N+](CC)(CCCCCn1c(=O)cc(C)n(CCCCCn2c(C)cc(=O)n(C)c2=O)c1=O)Cc1ccccc1[N+](=O)[O-] | 1.7 | – | – | –
10 | CC[N+](CC)(CCCCCn1c(=O)cc(C)n(CCCCn2c(C)cc(=O)n(C)c2=O)c1=O)Cc1ccccc1C(F)(F)F | – | – | 1 | –
11 | CC[N+](CC)(CCCCCn1c(=O)cc(C)n(CCCn2c(C)cc(=O)n(C)c2=O)c1=O)Cc1ccccc1C(F)(F)F | – | – | 2 | –
12 | Br.CC[N+](CC)(CCCCCn1c(=O)cc(C)n(CCCCn2c(C)cc(=O)n(C)c2=O)c1=O)Cc1ccccc1[N+](=O)[O-] | 1.4 | – | – | –
13 | CC[N+](CC)(CCCCCn1c(=O)cc(C)n(CCCCCn2c(C)cc(=O)n(C)c2=O)c1=O)Cc1ccccc1[N+](=O)[O-] | – | 40 | 0.4 | –
14 | CC[N+](CC)(CCCCCn1c(=O)cc(C)n(CCCCCCn2c(C)cc(=O)n(C)c2=O)c1=O)Cc1ccccc1C(F)(F)F.[Br-] | 10 | – | – | Activity (Rattus norvegicus [6]): 15.7%
15 | CC[N+](CC)(CCCCCn1c(=O)cc(C)n(CCCCCCn2c(C)cc(=O)n(C)c2=O)c1=O)Cc1ccccc1C(F)(F)F | – | 40 | 0.2 | Ki (Acetylcholinesterase [7]): 0.15 nM; Ki (Acetylcholinesterase [8]): 0.43 nM; Ki (Cholinesterase [9]): 35 µM
16 | Br.CC[N+](CC)(CCCCCn1c(=O)cc(C)n(CCCCCCn2c(C)cc(=O)n(C)c2=O)c1=O)Cc1ccccc1[N+](=O)[O-] | 5.5 | – | – | –
17 | CC[N+](CC)(CCCCCn1c(=O)cc(C)n(CCCCCn2c(C)cc(=O)n(C)c2=O)c1=O)Cc1ccccc1C(F)(F)F | – | 60 | 0.5 | –
18 | CC[N+](CC)(CCCCCn1c(=O)cc(C)n(CCCCCCn2c(C)cc(=O)n(C)c2=O)c1=O)Cc1ccccc1[N+](=O)[O-] | – | 6 | 0.1 | –
19 | CN(C)C(=O)Oc1ccc[n+](C)c1.[Br-] | 2.7 | – | – | Activity (Rattus norvegicus [10]): 221%
